Measurements taken from US20220332824A1 (published 2022).

The chains behind the UniProt entries cited, without tags or fusion partners. Residues count along the entry.
UniProt Q08722, 19-323: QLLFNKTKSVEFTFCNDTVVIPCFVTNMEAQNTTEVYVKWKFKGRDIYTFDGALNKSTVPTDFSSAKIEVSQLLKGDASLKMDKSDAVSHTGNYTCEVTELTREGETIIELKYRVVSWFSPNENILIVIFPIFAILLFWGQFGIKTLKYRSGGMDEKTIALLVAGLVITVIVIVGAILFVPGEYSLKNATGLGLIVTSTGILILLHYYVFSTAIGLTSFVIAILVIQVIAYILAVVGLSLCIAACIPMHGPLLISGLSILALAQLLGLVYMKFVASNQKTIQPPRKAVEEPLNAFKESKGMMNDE

B1: bispecific antibody PD1a-E-LN (bispecific antibody)
heavy: not shown
light: EVQLVESGGGLVQPGGSLRLSCAVSGNIYNRNFMGWFRQAPGKGREGVSAIYTGTSRTYYADSVKGRFTISRDNAKNTVYLQMNSLRPEDTAVYYCAADLRDGFWDTGVWNTWGQGTLVTVSSEPKSSDKTHTSPPSPEIVLTQSPATLSLSPGERATLSCRASENVGTYISWYQQKPGQAPRLLIYGASNRYTGIPARFSGSGSGTDFTLTISSLEPEDFAVYYCGESYGHLYTFGGGTKVEIKRTVAAPSVFIFPPSDEQLKSGTASVVCLLNNFYPREAKVQWKVDNALQSGNSQESVTEQDSKDSTYSLSSTLTLSKADYEKHKVYACEVTHQGLSSPVTKSFNRGEC
B2: bispecific antibody PD1b-E-LN (bispecific antibody)
heavy: not shown
light: B1 light with R45L, A75S, P88A, D102E
B3: bispecific antibody PD1b-E-LC (bispecific antibody)
heavy: not shown
light: EIVLTQSPATLSLSPGERATLSCRASENVGTYISWYQQKPGQAPRLLIYGASNRYTGIPARFSGSGSGTDFTLTISSLEPEDFAVYYCGESYGHLYTFGGGTKVEIKRTVAAPSVFIFPPSDEQLKSGTASVVCLLNNFYPREAKVQWKVDNALQSGNSQESVTEQDSKDSTYSLSSTLTLSKADYEKHKVYACEVTHQGLSSPVTKSFNRGECEPKSSDKTHTSPPSPEVQLVESGGGLVQPGGSLRLSCAVSGNIYNRNFMGWFRQAPGKGLEGVSAIYTGTSRTYYADSVKGRFTISRDNSKNTVYLQMNSLRAEDTAVYYCAADLREGFWDTGVWNTWGQGTLVTVSS
B4: bispecific antibody PD1a-E-LC (bispecific antibody)
heavy: not shown
light: B3 light with L274R, S304A, A317P, E331D

Biological target: CD47 (UniProt Q08722 19-323)
Assay: FACS

EC50 [nM] | Binder
1.62 | B1
3.12 | B2
0.54 | B3
0.984 | B4

Substitutions are numbered along the chain they refer to.
